This passage reports IC50 results from patent EP4831169A1, “NOVEL COMPOUND USED AS CBP/P300 INHIBITOR, AND PHARMACEUTICAL COMPOSITION FOR PREVENTING OR TREATING CANCER, INFLAMMATORY DISORDERS, OR AUTOIMMUNE DISEASES COMPRISING SAME AS ACTIVE INGREDIENT” (dated 2026).

Protein sequences, listed by entry. Tags and fused reporters are not part of them. Residues count along the entry.
UniProt Q92793, 1085-1192 limits assumed: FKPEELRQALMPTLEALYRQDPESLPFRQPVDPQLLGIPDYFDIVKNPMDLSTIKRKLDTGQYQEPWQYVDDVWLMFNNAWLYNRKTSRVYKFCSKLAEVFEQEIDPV

The target in one test is CBP BRD protein (Homo sapiens, UniProt Q92793). Kind of test: CBP bromodomain TR-FRET inhibitory activity assay. As to conditions: read-out: CBP BRD IC50, Table 3. How it is done: A time resolved fluorescence resonance energy transfer (TR-FRET) experiment was used to verify the activity of CBP bromodomain.
The assay was performed in a final volume of 14 µL, optimized based on a CREBBP time resolved fluorescence resonance energy transfer (TR-FRET) assay kit (BPS Bioscience, cat. 32619) to maximize an assay window, and performed in a final volume of 14 µL, while maximizing the assay window. A TR-FRET fluorescence acceptor and a Tb donor were diluted in an assay buffer containing 2-[4-(2-hydroxyethyl)piperazin-1-yl]ethanesulfonic acid (HEPES) (hereafter, referred to as an assay buffer, BPS Bioscience, cat. 33012), and 3 µL of each solution was transferred to all wells of a white 384-low-volume well plate (Corning, cat. 4513). 2 µL of 4X Ac-H4 peptide (final concentration 85 nM) was transferred to high control wells and test wells. Each compound was prepared at 10 concentration points by serially diluting 3-fold from the highest concentration in a dimethyl sulfoxide solvent. The compound at each concentration was then diluted in the assay buffer to prepare a diluted compound solution that was 4-fold more concentrated than the final concentration. 2 µL of each compound or dimethyl sulfoxide prepared in this way was distributed into an assay plate so that the final test concentration was a minimum of 0.5 µM to a maximum of 10 µM (final dimethyl sulfoxide concentration 1%). 6 µL of 1X assay buffer was added to low control wells and 2 µl was added to high control and test wells. Then, 2 µL of 4X CBP BRD protein (final concentration 7.5 nM, BPS bioscience, cat 31128) was added to initiate a PPI reaction. The plate was reacted at room temperature for 2 hours before measuring the signal. The TR-FRET signal was measured using an EnVision Multilabel plate reader (PerkinElmer; Mirror LNACE/DELFIA Dual/Bias). For data analysis, the values of each well were obtained using a TR-FRET ratio ((Signal 665 nm/Signal 615 nm)×20000). Data analysis was performed using the TR-FRET ratio ((Signal 665 nm/Signal 615 nm)×20000). Data were reported as percent inhibition compared to control wells based on the following equation: %Activity = ((FRETcompound - FRETLow av)/(FRETHigh av - FRETLow av))×100. IC50 analysis was determined by standard 4 parameter curve fitting according to an algorithm using GraphPad Prism 7.0 (GraphPad Software Inc., La Jolla, CA, USA). All data are expressed as mean ± standard error of the mean (SEM).
For orientation: Time-resolved FRET reads energy transfer from a long-lived donor to a nearby acceptor.

Another test concerns the target BRD4 (BD1) protein (Homo sapiens, UniProt O60885). The test can be described thus: BRD4 bromodomain TR-FRET inhibitory activity assay. Conditions: read-out: BRD4 (BD1) IC50, Table 4. How it is done: BRD inhibitory activity was measured using a time resolved fluorescence resonance energy transfer (TR-FRET) experiment to verify the activity of BRD4 bromodomain.
The assay was performed in a final volume of 14 µL, optimized based on a CREBBP time resolved fluorescence resonance energy transfer (TR-FRET) assay kit (BPS Bioscience, cat. 32613) to maximize an assay window, and performed in a final volume of 14 µL, while maximizing the assay window. A TR-FRET fluorescence acceptor and a Tb donor were diluted in an assay buffer containing 2-[4-(2-hydroxyethyl)piperazin-1-yl]ethanesulfonic acid (HEPES) (hereafter, referred to as an assay buffer, BPS Bioscience, cat. 33012), and 3 µL of each solution was transferred to all wells of a white 384-low-volume well plate (Corning, cat. 4513). 2 µL of 4X Ac-H4 peptide (final concentration 15 nM) was transferred to high control wells and test wells. Each compound was prepared at 10 concentration points by serially diluting 3-fold from the highest concentration in a dimethyl sulfoxide (DMSO) solvent. The compound at each concentration was then diluted in the assay buffer to prepare a diluted compound solution that was 4-fold more concentrated than the final concentration. 2 µL of each compound or dimethyl sulfoxide prepared in this way was distributed into an assay plate so that the final test concentration was a minimum of 0.5 µM to a maximum of 10 µM (final DMSO concentration 1%). 6 µL of 1X assay buffer was added to low control wells and 2 µL was added to high control and test wells. Then, 2 µL of 4X BRD4 (BD1) protein (final concentration 7.5 nM, BPS bioscience, cat 31040) was added to initiate a PPI reaction. The plate was reacted at room temperature for 2 hours before measuring the signal. The TR-FRET signal was measured using an EnVision Multilabel plate reader (PerkinElmer; Mirror LNACE/DELFIA Dual/Bias). For data analysis, the values of each well were obtained using the TR-FRET ratio ((Signal 665 nm/Signal 615 nm)×20000). Data analysis was performed using the TR-FRET ratio ((Signal 665 nm/Signal 615 nm)×20000). Data were reported as percent inhibition compared to control wells based on the following equation: %Activity = ((FRETcompound - FRETLow av)/(FRETHigh av - FRETLow av))×100. IC50 analysis was determined by standard 4 parameter curve fitting according to an algorithm using GraphPad Prism 7.0 (GraphPad Software Inc., La Jolla, CA, USA). All data are expressed as mean ± standard error of the mean (SEM).

On to `Cn1c(=O)n(C)c2c(N3CC(C)(O)C3)cc(-n3c(C(C)(C)C)nc4cc(N5CCCC5=O)c(C(F)F)cc43)cc21`, for which the IC50 (usually the concentration that inhibits the measured activity by half) on CBP BRD protein is under 500 nM; at BRD4 (BD1) protein, over 5000 nM.
With `Cn1cc(-c2cc3nc(C(C)(C)C)n(-c4cc(N5CCC(C)(O)C5)c5c(c4)n(C)c(=O)n5C)c3cc2C(F)F)cn1` (stereo not shown), the half-inhibitory concentration (IC50) is under 500 nM at CBP BRD protein and over 5000 nM on BRD4 (BD1) protein.
For `Cn1cc(-c2cc3nc(-c4cncn4C)n(-c4cc(Cl)c5c(c4)n(C)c(=O)n5C)c3cc2F)cn1`, the IC50 at CBP BRD protein was under 500 nM; at BRD4 (BD1) protein, over 5000 nM.
Taken in the same sequence, the figures for `CC(=O)c1cc(-n2c(-c3cncn3C)nc3cc(-c4cnn(C)c4)c(F)cc32)cc2c1n(C)c(=O)n2C` were 500 to 5000 nM and over 5000 nM.
Taken in the same sequence, the figures for `Cn1cc(-c2cc3nc(C(C)(C)C)n(-c4cc(N5CC(F)(F)C5)c5c(c4)n(C)c(=O)n5C)c3cc2C(F)F)cn1` were under 500 nM and over 5000 nM.
On to `C[C@H]1COCCN1c1cc(-n2c(-c3cncn3C)nc3cc(-c4cnn(C)c4)c(F)cc32)cc2c1n(C)c(=O)n2C`, for which the IC50 on CBP BRD protein was under 500 nM; on BRD4 (BD1) protein it was over 5000 nM.
Turning to `COc1cc2c(cc1-c1cnn(C)c1)nc(-c1cncn1C)n2-c1cc(N2CCOCC2)c2c(c1)n(C)c(=O)n2C`, the 50% inhibitory concentration (IC50) at CBP BRD protein is under 500 nM; at BRD4 (BD1) protein, 500 to 5000 nM.
Turning to `Cn1cc(-c2cc3nc(-c4cncn4C)n(-c4cc(N5CCC(O)CC5)c5c(c4)n(C)c(=O)n5C)c3cc2C(F)F)cn1`, the 50% inhibitory concentration (IC50) at CBP BRD protein was under 500 nM; on BRD4 (BD1) protein it was 500 to 5000 nM.
Taken in the same sequence, the figures for `Cn1cc(-c2cc3nc(-c4cncn4C)n(-c4cc(C#C[Si](C)(C)C)c5c(c4)n(C)c(=O)n5C)c3cc2F)cn1` were 500 to 5000 nM and over 5000 nM.
Regarding `CC(C)Oc1cc(-n2c(-c3cncn3C)nc3cc(-c4cnn(C)c4)c(C(F)F)cc32)cc2c1n(C)c(=O)n2C`, the IC50 at CBP BRD protein is under 500 nM; at BRD4 (BD1) protein it was 500 to 5000 nM.
The like results for `Cc1ncc(-c2cc3nc(C(C)(C)C)n(-c4cc(N5CC(C)(O)C5)c5c(c4)n(C)c(=O)n5C)c3cc2OCc2ccccc2)s1` were, in that order, under 500 nM and over 5000 nM.
Taken in the same sequence, the figures for `CN1CCN(c2cc(-n3c(C(C)(C)C)nc4cc(-c5cnn(C)c5)c(C(F)F)cc43)cc3c2n(C)c(=O)n3C)CC1` were under 500 nM and over 5000 nM.
With `Cc1ncc(-c2cc3nc(C(C)(C)C)n(-c4cc(N5CCOCC5)c5c(c4)n(C)c(=O)n5C)c3cc2OC(F)F)s1`, the half-maximal inhibitory concentration (IC50) on CBP BRD protein was under 500 nM; at BRD4 (BD1) protein, over 5000 nM.
The like results for `Cn1cc(-c2cc3nc(C(C)(C)C)n(-c4cc(C5CCC(C)(O)CC5)c5c(c4)n(C)c(=O)n5C)c3cc2C(F)F)cn1` (single isomer, unassigned) were, in that order, under 500 nM and over 5000 nM.
Taken in the same sequence, the figures for `CCn1cc(-c2cc3nc(-c4cncn4C)n(-c4cc(NC(C)C)c5c(c4)n(C)c(=O)n5C)c3cc2F)cn1` were under 500 nM and 500 to 5000 nM.
With `CC(=O)Nc1ccc(-c2cc3nc(-c4cncn4C)n(-c4cc(C5CCOCC5)c5c(c4)n(C)c(=O)n5C)c3cc2F)cc1`, the results for the half-inhibitory concentration (IC50) on CBP BRD protein and at BRD4 (BD1) protein were under 500 nM and 500 to 5000 nM, respectively.
Taken in the same sequence, the figures for `COC(=O)c1cc2c(cc1-c1cnn(C)c1)nc(C)n2-c1ccc2c(c1)n(C)c(=O)n2C` were over 5000 nM and over 5000 nM.
The like results for `Cn1cc(-c2cc3nc(-c4cncn4C)n(-c4cc(C5=CCCCC5)c5c(c4)n(C)c(=O)n5C)c3cc2F)cn1` were, in that order, under 500 nM and over 5000 nM.
Taken in the same sequence, the figures for `Cn1cc(-c2cc3nc(-c4cncn4C)n(-c4cc(NCC5CCC5)c5c(c4)n(C)c(=O)n5C)c3cc2F)cn1` were under 500 nM and over 5000 nM.
Regarding `Cn1cc(-c2cc3nc(-c4cncn4C)n(-c4ccc5c(c4)n(C)c(=O)n5C)c3cc2C(F)F)cn1`, the IC50 at CBP BRD protein is under 500 nM; on BRD4 (BD1) protein, over 5000 nM.
The like results for `Cn1cc(-c2cc3nc(C(C)(C)C)n(-c4cc(N5CCC(=O)CC5)c5c(c4)n(C)c(=O)n5C)c3cc2C(F)(F)F)cn1` were, in that order, under 500 nM and over 5000 nM.
The like results for `Cn1cc(-c2cc3nc(-c4cncn4C)n(-c4cc(N5CCCC5)c5c(c4)n(C)c(=O)n5C)c3cc2F)cn1` were, in that order, under 500 nM and 500 to 5000 nM.
For the molecule `Cn1cc(-c2cc3nc(C(C)(C)C)n(-c4cc(N5CCN(C(=O)OC(C)(C)C)CC5)c5c(c4)n(C)c(=O)n5C)c3cc2C(F)F)cn1`, the values for the IC50 on CBP BRD protein and on BRD4 (BD1) protein were under 500 nM and over 5000 nM, respectively.
Taken in the same sequence, the figures for `Cn1cc(-c2cc3nc(C(C)(C)C)n(-c4cc(NC5CCCC5)c5c(c4)n(C)c(=O)n5C)c3cc2F)cn1` were under 500 nM and over 5000 nM.
`Cn1cc(-c2cc3nc(C(C)(C)C)n(-c4cc(N5CCOCC5)c5c(c4)n(C)c(=O)n5C)c3cc2C(F)F)cn1`: the IC50 at CBP BRD protein was under 500 nM; on BRD4 (BD1) protein it was over 5000 nM.
The like results for `CN1CCC(c2cc(-n3c(-c4cncn4C)nc4cc(-c5cnn(C)c5)c(F)cc43)cc3c2n(C)c(=O)n3C)CC1` were, in that order, under 500 nM and over 5000 nM.
In the case of `Cn1cc(-c2cc3nc(-c4cncn4C)n(-c4cc(NC(C)(C)C)c5c(c4)n(C)c(=O)n5C)c3cc2F)cn1`, the 50% inhibitory concentration (IC50) at CBP BRD protein was under 500 nM; on BRD4 (BD1) protein, over 5000 nM.
For the molecule `Cn1cc(-c2cc3nc(C(C)(C)C)n(-c4cc(N5CC(C)(O)C5)c5c(c4)n(C)c(=O)n5C)c3cc2C#N)cn1`, the IC50 on CBP BRD protein is under 500 nM; on BRD4 (BD1) protein, over 5000 nM.
Taken in the same sequence, the figures for `Cc1ccc2c(-c3nc4cc(-c5cnn(C)c5)c(C(F)F)cc4n3-c3ccc4c(c3)n(C)c(=O)n4C)c[nH]c2c1` were under 500 nM and over 5000 nM.
The like results for `Cn1cc(-c2cc3nc(C(C)(C)C)n(-c4cc(N5CCOCC5)c5c(c4)n(C)c(=O)n5C)c3cc2C#N)cn1` were, in that order, under 500 nM and over 5000 nM.
The like results for `Cn1cc(-c2cc3nc(C(C)(C)C)n(-c4cc(NC5CCCCC5)c5c(c4)n(C)c(=O)n5C)c3cc2F)cn1` were, in that order, under 500 nM and over 5000 nM.
For `Cn1cc(-c2cc3nc(C(C)(C)C)n(-c4cc(OCC5CCC(=O)CC5)c5c(c4)n(C)c(=O)n5C)c3cc2F)cn1`, the IC50 on CBP BRD protein was under 500 nM; at BRD4 (BD1) protein, over 5000 nM.
The like results for `Cn1cc(-c2cc3nc(C(C)(C)C)n(-c4ccc5c(c4)n(C)c(=O)n5C)c3cc2C(F)F)cn1` were, in that order, under 500 nM and over 5000 nM.
The like results for `Cn1cncc1-c1nc2cc(-c3cnn(C(F)F)c3)c(F)cc2n1-c1cc(N2CCOCC2)c2c(c1)n(C)c(=O)n2C` were, in that order, under 500 nM and over 5000 nM.
On to `Cn1cc(-c2ccc3c(c2)nc(-c2cncn2C)n3-c2cc(C3CCOCC3)c3c(c2)n(C)c(=O)n3C)cn1`, for which the concentration for half-maximal inhibition (IC50) at CBP BRD protein was under 500 nM; at BRD4 (BD1) protein, over 5000 nM.
